Results from PubChem BioAssay.
The entries are a selection whose mix differs from that of the whole data set. Inconclusive results are not listed. Calls of active or inactive are those of the source.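 How the source made its calls, unless noted: active means GFP response above 150% of the DMSO level; inconclusive means fewer than 70 events counted for a yeast strain; inactive means the rest.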

By UniProt entry, the sequences of proteins in these tests, tags left out. Where a name states a change or a piece, a line headed by the entry shows the natural chain unless it says otherwise.
UniProt P09471, whole entry, looked up: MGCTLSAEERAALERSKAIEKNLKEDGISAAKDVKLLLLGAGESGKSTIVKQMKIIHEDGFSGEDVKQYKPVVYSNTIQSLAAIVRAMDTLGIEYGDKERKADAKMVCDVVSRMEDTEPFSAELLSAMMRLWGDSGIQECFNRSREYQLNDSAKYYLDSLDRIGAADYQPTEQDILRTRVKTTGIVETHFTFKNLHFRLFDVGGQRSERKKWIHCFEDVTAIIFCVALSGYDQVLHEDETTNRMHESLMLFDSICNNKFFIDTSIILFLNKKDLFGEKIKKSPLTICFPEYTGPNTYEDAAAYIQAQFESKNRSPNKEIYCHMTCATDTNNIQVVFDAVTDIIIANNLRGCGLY
UniProt O15492: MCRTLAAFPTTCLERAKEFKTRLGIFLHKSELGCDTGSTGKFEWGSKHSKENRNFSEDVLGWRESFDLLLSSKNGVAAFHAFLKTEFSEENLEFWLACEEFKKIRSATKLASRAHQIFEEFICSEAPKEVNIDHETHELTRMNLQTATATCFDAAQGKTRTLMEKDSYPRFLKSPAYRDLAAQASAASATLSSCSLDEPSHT
UniProt P49795: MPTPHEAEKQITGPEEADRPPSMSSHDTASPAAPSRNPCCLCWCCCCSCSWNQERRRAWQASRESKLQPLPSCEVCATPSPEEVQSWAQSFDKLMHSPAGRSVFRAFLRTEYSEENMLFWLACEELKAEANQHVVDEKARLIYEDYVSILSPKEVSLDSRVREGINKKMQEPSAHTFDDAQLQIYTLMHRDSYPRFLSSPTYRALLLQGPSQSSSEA
UniProt P13612, whole entry, looked up: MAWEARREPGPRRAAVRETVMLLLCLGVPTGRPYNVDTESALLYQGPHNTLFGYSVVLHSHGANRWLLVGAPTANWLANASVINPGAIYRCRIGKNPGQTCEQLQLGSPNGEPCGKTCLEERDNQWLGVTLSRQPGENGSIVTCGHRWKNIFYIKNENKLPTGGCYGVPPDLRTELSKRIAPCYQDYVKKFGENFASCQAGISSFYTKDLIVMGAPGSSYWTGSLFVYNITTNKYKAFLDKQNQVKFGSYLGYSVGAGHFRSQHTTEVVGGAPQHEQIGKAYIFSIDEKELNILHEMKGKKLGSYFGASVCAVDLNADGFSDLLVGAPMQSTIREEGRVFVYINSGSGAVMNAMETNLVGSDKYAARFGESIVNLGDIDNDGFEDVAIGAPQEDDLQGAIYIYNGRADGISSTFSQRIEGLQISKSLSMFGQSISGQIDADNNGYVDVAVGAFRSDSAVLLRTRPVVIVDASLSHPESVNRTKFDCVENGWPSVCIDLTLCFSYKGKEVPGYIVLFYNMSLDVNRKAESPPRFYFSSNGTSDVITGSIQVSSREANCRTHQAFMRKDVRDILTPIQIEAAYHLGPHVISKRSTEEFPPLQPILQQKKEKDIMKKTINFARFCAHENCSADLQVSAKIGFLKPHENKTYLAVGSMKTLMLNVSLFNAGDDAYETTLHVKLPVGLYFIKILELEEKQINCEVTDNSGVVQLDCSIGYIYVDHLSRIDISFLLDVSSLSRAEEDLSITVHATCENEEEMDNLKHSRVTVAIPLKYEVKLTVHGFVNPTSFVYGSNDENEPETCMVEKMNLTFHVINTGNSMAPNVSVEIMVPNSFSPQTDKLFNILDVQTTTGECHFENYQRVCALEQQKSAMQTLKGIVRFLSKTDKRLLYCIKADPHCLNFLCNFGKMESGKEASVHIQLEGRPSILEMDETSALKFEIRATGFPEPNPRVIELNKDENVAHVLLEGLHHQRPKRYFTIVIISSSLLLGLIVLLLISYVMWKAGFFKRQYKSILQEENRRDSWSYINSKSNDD
UniProt P05556, whole entry, looked up: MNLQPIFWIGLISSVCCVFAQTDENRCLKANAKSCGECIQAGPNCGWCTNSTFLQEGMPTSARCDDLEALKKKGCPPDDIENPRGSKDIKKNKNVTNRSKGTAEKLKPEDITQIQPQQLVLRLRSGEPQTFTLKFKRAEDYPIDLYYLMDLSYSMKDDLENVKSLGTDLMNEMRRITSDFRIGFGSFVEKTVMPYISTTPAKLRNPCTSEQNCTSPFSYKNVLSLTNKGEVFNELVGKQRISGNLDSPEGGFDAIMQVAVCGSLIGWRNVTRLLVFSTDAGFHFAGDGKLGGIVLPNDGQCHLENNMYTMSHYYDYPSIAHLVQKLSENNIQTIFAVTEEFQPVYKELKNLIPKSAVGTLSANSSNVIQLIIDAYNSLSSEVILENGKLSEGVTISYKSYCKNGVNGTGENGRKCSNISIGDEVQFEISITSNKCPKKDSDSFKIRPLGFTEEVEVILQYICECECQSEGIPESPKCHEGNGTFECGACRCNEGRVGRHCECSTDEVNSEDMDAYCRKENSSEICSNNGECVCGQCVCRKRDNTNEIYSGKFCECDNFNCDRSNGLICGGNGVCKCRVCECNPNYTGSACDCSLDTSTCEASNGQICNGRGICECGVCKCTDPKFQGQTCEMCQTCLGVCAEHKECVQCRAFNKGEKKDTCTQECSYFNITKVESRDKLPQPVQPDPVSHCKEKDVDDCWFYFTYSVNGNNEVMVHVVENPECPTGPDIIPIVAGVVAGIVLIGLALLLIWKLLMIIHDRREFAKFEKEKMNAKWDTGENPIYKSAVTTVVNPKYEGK
UniProt P25098: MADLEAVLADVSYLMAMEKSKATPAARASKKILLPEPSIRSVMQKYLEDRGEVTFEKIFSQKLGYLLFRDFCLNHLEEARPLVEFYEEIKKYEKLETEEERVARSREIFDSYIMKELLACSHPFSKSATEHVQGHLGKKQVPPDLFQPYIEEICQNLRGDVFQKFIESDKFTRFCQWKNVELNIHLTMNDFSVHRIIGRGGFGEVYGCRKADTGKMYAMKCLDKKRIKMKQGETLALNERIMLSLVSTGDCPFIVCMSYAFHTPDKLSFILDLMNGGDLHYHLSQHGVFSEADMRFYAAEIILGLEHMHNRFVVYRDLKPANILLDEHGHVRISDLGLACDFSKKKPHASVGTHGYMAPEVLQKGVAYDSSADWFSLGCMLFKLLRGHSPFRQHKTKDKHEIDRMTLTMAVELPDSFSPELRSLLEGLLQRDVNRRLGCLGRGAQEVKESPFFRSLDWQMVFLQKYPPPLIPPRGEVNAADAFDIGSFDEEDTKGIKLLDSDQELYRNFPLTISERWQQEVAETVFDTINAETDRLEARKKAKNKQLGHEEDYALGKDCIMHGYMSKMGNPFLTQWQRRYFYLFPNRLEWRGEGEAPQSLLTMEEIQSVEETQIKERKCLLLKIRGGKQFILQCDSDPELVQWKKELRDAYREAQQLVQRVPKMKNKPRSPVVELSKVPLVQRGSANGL
UniProt P63010: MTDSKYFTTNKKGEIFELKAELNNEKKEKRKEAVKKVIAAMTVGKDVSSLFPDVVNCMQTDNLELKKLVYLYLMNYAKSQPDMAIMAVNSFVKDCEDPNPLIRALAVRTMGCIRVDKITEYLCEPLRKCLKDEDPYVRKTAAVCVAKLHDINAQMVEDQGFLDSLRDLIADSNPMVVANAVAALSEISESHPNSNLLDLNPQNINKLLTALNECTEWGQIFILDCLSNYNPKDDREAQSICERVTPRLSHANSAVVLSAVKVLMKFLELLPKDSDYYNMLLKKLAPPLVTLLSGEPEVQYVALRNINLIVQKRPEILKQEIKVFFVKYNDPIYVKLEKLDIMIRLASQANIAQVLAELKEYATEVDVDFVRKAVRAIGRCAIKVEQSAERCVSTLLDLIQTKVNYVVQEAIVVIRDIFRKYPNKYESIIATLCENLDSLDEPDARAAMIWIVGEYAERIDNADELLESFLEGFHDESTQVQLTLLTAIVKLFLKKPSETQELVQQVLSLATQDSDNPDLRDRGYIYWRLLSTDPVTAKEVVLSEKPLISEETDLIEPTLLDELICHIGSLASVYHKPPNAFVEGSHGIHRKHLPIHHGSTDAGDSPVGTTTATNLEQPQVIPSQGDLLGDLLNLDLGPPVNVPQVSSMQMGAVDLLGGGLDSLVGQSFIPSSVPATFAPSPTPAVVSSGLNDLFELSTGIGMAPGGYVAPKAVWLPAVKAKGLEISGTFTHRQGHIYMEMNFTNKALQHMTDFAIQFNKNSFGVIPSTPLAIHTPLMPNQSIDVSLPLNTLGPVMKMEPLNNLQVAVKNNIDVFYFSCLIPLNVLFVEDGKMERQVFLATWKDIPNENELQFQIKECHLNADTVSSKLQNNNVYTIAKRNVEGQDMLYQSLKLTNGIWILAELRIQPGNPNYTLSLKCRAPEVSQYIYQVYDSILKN
UniProt Q9NP58: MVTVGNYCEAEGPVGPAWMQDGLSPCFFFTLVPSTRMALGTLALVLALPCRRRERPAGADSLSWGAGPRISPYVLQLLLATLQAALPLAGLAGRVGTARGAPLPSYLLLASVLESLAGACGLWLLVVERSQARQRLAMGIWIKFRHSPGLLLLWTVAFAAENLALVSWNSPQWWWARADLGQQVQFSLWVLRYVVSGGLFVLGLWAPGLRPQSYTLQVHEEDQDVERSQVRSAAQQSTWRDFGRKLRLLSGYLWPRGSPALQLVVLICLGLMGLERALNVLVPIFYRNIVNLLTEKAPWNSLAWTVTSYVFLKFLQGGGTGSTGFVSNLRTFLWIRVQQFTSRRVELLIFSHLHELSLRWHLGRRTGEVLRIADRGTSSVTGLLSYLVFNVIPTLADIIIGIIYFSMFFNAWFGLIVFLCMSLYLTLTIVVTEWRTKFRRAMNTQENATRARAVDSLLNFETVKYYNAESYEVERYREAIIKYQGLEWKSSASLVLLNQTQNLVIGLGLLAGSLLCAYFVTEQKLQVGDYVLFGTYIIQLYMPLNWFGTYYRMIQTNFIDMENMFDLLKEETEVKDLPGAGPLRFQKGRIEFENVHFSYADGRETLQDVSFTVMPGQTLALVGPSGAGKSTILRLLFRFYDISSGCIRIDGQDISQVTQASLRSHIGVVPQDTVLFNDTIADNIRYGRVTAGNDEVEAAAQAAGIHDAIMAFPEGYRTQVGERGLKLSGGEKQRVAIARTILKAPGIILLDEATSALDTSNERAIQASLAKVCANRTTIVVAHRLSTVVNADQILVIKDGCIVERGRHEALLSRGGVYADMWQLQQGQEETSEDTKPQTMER

Key:
[1] = hit retest on RPL19A-GFP reporter strain – cell-based, S. cerevisiae, flow cytometry, cherry picks, mother/daughter gates, confirmation (AID 2270;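 active means GFP response below 50% of the DMSO control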); settings: 3 h, at 10 µM, active compounds read low, 100 = same GFP as DMSO wells
[2] = yeast TOR pathway reporter LAP4-GFP change – cell-based, cherry picks, flow cytometry, mother/daughter gates, confirmation (AID 2271;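 active means GFP response above 150% of the DMSO control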;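 further: ratio of sample to DMSO plate mean so 100% equals DMSO level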); settings: S. cerevisiae LAP4-GFP strain, 3 h, at 10 µM, active compounds read high, 100 means same as DMSO control
[3] = TOR pathway reporter MEP2-GFP, retest of hits – S. cerevisiae, flow cytometry GFP, cherry picks, confirmation (AID 2272;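 active means GFP response above 150% of the DMSO control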;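 further: ratio of well signal to plate DMSO mean so 100% equals DMSO level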); settings: S. cerevisiae MEP2-GFP strain, 3 h, at 10 µM, active compounds read high
[4] = yeast AGP1-GFP fluorescence change, single-dose – cell-based, flow cytometry, S. cerevisiae, cherry picks, confirmation (AID 2273);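 further: median GFP channel fluorescence over the whole cell population gate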; settings: S. cerevisiae AGP1-GFP strain, 3 h, at 10 µM
[5] = TOR pathway CIT2 reporter hit retest – S. cerevisiae, GFP fusion, cherry picks, mother/daughter gates, confirmation (AID 2274); settings: S. cerevisiae CIT2-GFP strain, flow cytometry, 3 h; at 10 µM; active compounds read high
[6] = green-channel fluorescence artefact in S. cerevisiae – s288c strain, artefact control for yeast TOR pathway GFP screen, dose response (AID 2757;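 active means fluorescence span over the dose series, or activity score, above about 33, limit read from the data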;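 further: thousands of bead-calibrated equivalent soluble fluorophore molecules from median cell fluorescence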); settings: 520 nm autofluorescence, flow cytometry, 3 h, at 33 µM, active compounds read high, zero means same as solvent-only cells
[7] = interference with biotin-avidin bead interaction – biochemical, flow cytometry, bead-based, counter-screen for RGS protein interaction modulators (AID 1783;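 active means inhibition above 50%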;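 further: median green fluorescence of gated singlet beads compared with DMSO control wells; 0% = DMSO wells and 100% = complete loss of bead fluorescence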); settings: streptavidin beads, fluorescein-biotin binding, at 10 µM, active compounds read high
[8] = target: Guanine nucleotide-binding protein G(o) subunit alpha (Homo sapiens) (UniProt P09471); test: retest of RGS8-Galphao interaction hits – biochemical, multiplexed bead flow cytometry, single concentration, confirmation (AID 1836; in the data active means binding response below about 72% or above about 130%; inactive means in between;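 further: Galphao activated as GDP AlF4 complex before binding bead RGS8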); settings: bead-based flow cytometry RGS8-Galphao binding, fluorescence; at 10 µM; actives lie on both sides
[9] = target: Guanine nucleotide-binding protein G(o) subunit alpha (Homo sapiens) (UniProt P09471); test: retest of RGS7-Galphao interaction hits – biochemical, multiplexed bead flow cytometry, single concentration, confirmation (AID 1837; in the data active means response below about 75% or above about 130%; inactive means in between;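 further: fluorescent Galphao activated with GDP and aluminum fluoride binding bead-coupled RGS7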); settings: bead-based flow cytometry RGS7-Galphao binding; at 10 µM; actives lie on both sides
[10] = target: Regulator of G-protein signaling 16 (Homo sapiens) + Guanine nucleotide-binding protein G(o) subunit alpha (Homo sapiens) (UniProt O15492+P09471); test: RGS16 and Galphao interaction regulators – biochemical, single concentration, multiplexed bead flow cytometry, confirmation (AID 1838; in the data active means response below about 74% or above about 130%; inactive means in between;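 further: Galphao activated as the GDP aluminium fluoride complex binding bead-coupled RGS16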); settings: bead-based flow cytometry, at 10 µM, actives lie on both sides
[11] = target: Guanine nucleotide-binding protein G(o) subunit alpha (Homo sapiens) (UniProt P09471); test: RGS4 and Galphao interaction regulators – biochemical, single concentration, multiplexed bead flow cytometry, confirmation (AID 1840; in the data active means binding response below about 74% or above about 130%; inactive means in between); settings: at 10 µM, actives lie on both sides
[12] = target: Guanine nucleotide-binding protein G(o) subunit alpha (Homo sapiens) + Regulator of G-protein signaling 19 (Homo sapiens) (UniProt P09471+P49795); test: RGS19 interaction with Gαo, hit retest – biochemical, single point, multiplexed bead flow cytometry, confirmation (AID 1841; in the data active means response below about 50% or above about 160%; inactive means in between;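 further: 100% = no compound control and 0% = blank background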); settings: bead-based flow cytometry RGS19-Galphao binding; at 10 µM; actives lie on both sides
[13] = rapamycin-like changes in RPL19A-GFP expression – cell-based, S. cerevisiae, multiplex flow cytometry, primary screen (AID 1862; in the data active means percent of DMSO control GFP below about 86%;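 further: lower values mimic rapamycin by blocking the RPL19A rise seen in DMSO cells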); settings: S. cerevisiae RPL19A-GFP strain, flow cytometry fluorescence, 3 h; at 10 µM; active compounds read low
[14] = TOR pathway GLN3 branch reporter MEP2-GFP changes – S. cerevisiae, multiplex flow cytometry, primary screen (AID 1867;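 active means GFP response, as percent of the DMSO control, above the screen-wide mean plus 3 SD, about 139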;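 further: median GFP channel fluorescence of barcode-gated MEP2-GFP cells measured by flow cytometry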); settings: S. cerevisiae MEP2-GFP strain, 3 h, at 10 µM, active compounds read high, 100% means same as DMSO wells
[15] = TOR pathway RTG branch CIT2 reporter changes – S. cerevisiae, GFP fusion, multiplex flow cytometry, primary screen (AID 1870;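 active means percent response above a set limit, the screen-wide mean plus 3 SD, cut at about 130% in these data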;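 further: barcoded CIT2-GFP strain pooled with four other GFP strains with rapamycin as positive control; median GFP fluorescence per well over plate mean of DMSO wells so 100% = DMSO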); settings: S. cerevisiae CIT2-GFP expression, 3 h, at 10 µM, active compounds read high
[16] = TOR pathway LAP4-GFP level changes – S. cerevisiae, multiplex flow cytometry, primary screen (AID 1873;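 active means GFP signal, as percent of the solvent control, above the screen mean plus 3 SD, about 149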); settings: S. cerevisiae LAP4-GFP expression, 3 h, at 10 µM, active compounds read high
[17] = yeast AGP1-GFP level changes, GLN3 branch – cell-based, multiplex flow cytometry, S. cerevisiae, primary screen (AID 1887;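 active means GFP signal above the screen-wide mean plus 3 SD, that is over about 124.5% of the solvent control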;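 further: AGP1-GFP fusion strain of S. cerevisiae within a five-strain barcoded multiplex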); settings: 3 h, at 10 µM, active compounds read high
[18] = reduced mouse 2C T cell binding to pMHC/ICAM-1 vesicles – MLPCN validation set, flow cytometry, LFA-1/ICAM-1 modulator project, pilot screen (AID 2523;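 active means response below a set limit, under 55% cells CD8-positive and vesicle-bound, and CD8 cells' 90th-percentile brightness under 279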;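 further: mean PE anti-B7-1 fluorescence of CD8+ cells relative to row control; 100% = QL9-loaded vesicles with DMSO vehicle in the same plate row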); settings: 2C mouse CD8+ T cells, at 7 µM, active compounds read low
[19] = target: Integrin beta-1 (Homo sapiens) + Integrin alpha-4 (Homo sapiens) (UniProt P13612+P05556); test: alpha4beta1 integrin LIBS antibody binding reduction – U937 cells, HUTS-21 mAb, flow cytometry, validation set, VLA-4 allosteric modulator project, pilot screen (AID 2674;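 active means inhibition above 50%, about 3 SD of the validation set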;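 further: antibody binding induced by the VLA-4 ligand LDV present at three times its Kd; 0% = LDV ligand with antibody and no compound and 100% = antibody without LDV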); settings: HUTS-21 LIBS mAb binding, at 6.7 µM, active compounds read high, binding induced by LDV ligand
[20] = calorie-restriction mimetic ROS inhibitors, yeast – validation compound set, pilot screen (AID 2706;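 active means superoxide response below 65% of plate, a cut near 3 SD across the whole screen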;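 further: yeast exposed to compound for one week at 30 degrees C before staining; 100% = mean of all compound wells on the same plate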); settings: S. cerevisiae aging, superoxide DHE fluorescence; at 10 µM; active compounds read low
[21] = target: Beta-adrenergic receptor kinase 1 (Homo sapiens) (UniProt P25098); test: GRK2 binders displacing RNA aptamer, biochemical, validation, human GRK2, bead flow cytometry (AID 488806;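 active means aptamer binding inhibition above 30%, about 3 SD of noise from non-fluorescent compounds; inactive means inhibition at or below 30%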); settings: bead-bound GRK2, FAM-aptamer displacement, at 10 µM, active compounds read high
[22] = target: Beta-2 adrenergic receptor (Homo sapiens) (UniProt P07550); test: agonist-induced loss of surface beta2AR – cell-based, FAP fluorogen, flow cytometry, validation set, pilot screen (AID 504459;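 active means percent response above 42, roughly 3 SD of non-fluorescent test compounds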;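 further: agonist-driven loss of surface beta2AR via internalization measured by FAP dye flow cytometry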); settings: Am2.2-beta2AR cells, at 10 µM, active compounds read high
[23] = target: AP-2 complex subunit beta (Homo sapiens) (UniProt P63010); test: beta-arrestin/AP2 interaction blockers – biochemical, validation set, GST-AP2 beads, flow cytometry, pilot screen (AID 504541;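 active means inhibition above 54%, about 3 SD of non-fluorescent compounds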;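 further: AP2 carries R879A mutation and is captured from E. coli lysate; bead-bound FITC arrestin peptide fluorescence measuring arrestin peptide binding to AP2; 0% = DMSO wells and 100% = excess unlabeled arrestin peptide control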); settings: FITC arrestin peptide, at 10 µM, active compounds read high, AP2 beta2 appendage fragment, R879A mutant
[24] = cytosolic pH regulators acting via V-ATPase – S. cerevisiae, pHLuorin, HTS validation (AID 504600; in the data active means response above about 15%;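 further: plate controls were DMSO for no effect and reference compound for full effect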); settings: V-ATPase proton transport, at 10 µM, active compounds read high
[25] = tested on: anti-desmoglein-3 scFv antibody binding to human DSG3; test: blockers of pathogenic pemphigus antibody–desmoglein-3 binding – biochemical, validation compound set, bead-based, flow cytometry, pilot screen (AID 588368;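 active means binding below the plate cutoff, the plate median minus 3 SD, with a reading above zero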;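 further: signal is the median channel fluorescence of bead-bound GFP antibody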); settings: Protein G beads, DSG3-Fc, scFv-GFP binding, at 10 µM, active compounds read low
[26] = target: ATP-binding cassette sub-family B member 6 (Homo sapiens) (UniProt Q9NP58); test: blockers of ABCB6-driven porphyrin uptake – K562-ABCB6 cells, flow cytometry, validation set, pilot screen (AID 588550;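 active means inhibition above the screen-wide mean plus 3 SD, about 51%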;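 further: 0% = DMSO wells and 100% = benzethonium chloride 70 µM positive control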); settings: K562-ABCB6 porphyrin accumulation, 1 h, at 10 µM, active compounds read high
[27] = AML differentiation inducers, ER-HoxA9 marrow cells – cell-based, GFP/MAC1 double positive, flow cytometry, validation set, primary screen (AID 588685;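 active means differentiation response of at least 50%, scaled between solvent and reference control, from cells with both markers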;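 further: compound exposure lasts four days before antibody staining and flow analysis; 0% = DMSO wells and 100% = 5 µM fulvestrant positive control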); settings: active compounds read high, normalized: vehicle 0, fulvestrant 100

C[N+]1=C2C=CC=CC=C2SC12C([N+](=O)[O-])=CC([N+](=O)[O-])=C[C-]2[N+](=O)[O-] (stereo not drawn)
inactive: GFP response vs DMSO [1] 98% | GFP response vs DMSO [3] 101% | GFP response, % of DMSO [4] 104% | GFP response, % of DMSO [5] 100% | fluorescence change (kMESF span) [6] -0.2
active: GFP response relative to DMSO [2] 167%

c1ccc(-c2nn[nH]n2)c(-c2nn[nH]n2)c1
inactive: inhibition [7] 1.6% | binding response (% of control) [8] 98.6% | response (percent of control binding) [9] 91.6% | response (% of control binding) [10] 94.1% | binding response (% of control) [11] 94.2% | response (percent of control binding) [12] 98.2%

O=P(Nc1nccs1)(c1ccccc1)c1nc2ccccc2s1 (stereo not drawn)
inactive: GFP response vs DMSO [1] 97.6% | GFP response relative to DMSO [2] 128% | GFP response vs DMSO [3] 104% | GFP response, % of DMSO [4] 99.7% | GFP response, % of DMSO [5] 97.8%

CN(C(=O)Cc1ccc(Cl)c(Cl)c1)[C@@H]1CCCC[C@H]1N1CCCC1
inactive: percent of DMSO control GFP [13] 98.8% | GFP response vs DMSO [14] 104% | percent response of DMSO control [15] 101% | GFP response vs DMSO [16] 108% | GFP response, % of DMSO [17] 104% | vesicle binding response [18] 122% | inhibition [19] 5.61% | superoxide response (% of plate) [20] 93.4% | aptamer binding inhibition [21] -1% | response [22] 8.89% | inhibition [23] -9.18% | response [24] 0.59% | binding (% of control) [25] 103% | inhibition [26] 1% | differentiation response [27] -0.18%

CCOP(=O)(Nc1cccc2ccccc12)OCC
inactive: GFP response vs DMSO [1] 98.6% | GFP response relative to DMSO [2] 98.2% | GFP response vs DMSO [3] 101% | GFP response, % of DMSO [4] 102% | GFP response, % of DMSO [5] 103%

Nc1cccc2c([As](=O)(O)O)cccc12
inactive: inhibition [7] 0.2% | binding response (% of control) [8] 102% | response (percent of control binding) [9] 101% | response (% of control binding) [10] 102% | binding response (% of control) [11] 104% | response (percent of control binding) [12] 99.4%
